Experimental data taken from patent US6420558B1, “Aminopiperidine derivates as integrin αvβ3 antagonists” (Meiji Seika Kaisha, Ltd., priority 1998, dated 2002).

By UniProt entry, the sequences of proteins in these tests, tags left out. Residues count along the entry.
UniProt P05556, 21-798 limits assumed: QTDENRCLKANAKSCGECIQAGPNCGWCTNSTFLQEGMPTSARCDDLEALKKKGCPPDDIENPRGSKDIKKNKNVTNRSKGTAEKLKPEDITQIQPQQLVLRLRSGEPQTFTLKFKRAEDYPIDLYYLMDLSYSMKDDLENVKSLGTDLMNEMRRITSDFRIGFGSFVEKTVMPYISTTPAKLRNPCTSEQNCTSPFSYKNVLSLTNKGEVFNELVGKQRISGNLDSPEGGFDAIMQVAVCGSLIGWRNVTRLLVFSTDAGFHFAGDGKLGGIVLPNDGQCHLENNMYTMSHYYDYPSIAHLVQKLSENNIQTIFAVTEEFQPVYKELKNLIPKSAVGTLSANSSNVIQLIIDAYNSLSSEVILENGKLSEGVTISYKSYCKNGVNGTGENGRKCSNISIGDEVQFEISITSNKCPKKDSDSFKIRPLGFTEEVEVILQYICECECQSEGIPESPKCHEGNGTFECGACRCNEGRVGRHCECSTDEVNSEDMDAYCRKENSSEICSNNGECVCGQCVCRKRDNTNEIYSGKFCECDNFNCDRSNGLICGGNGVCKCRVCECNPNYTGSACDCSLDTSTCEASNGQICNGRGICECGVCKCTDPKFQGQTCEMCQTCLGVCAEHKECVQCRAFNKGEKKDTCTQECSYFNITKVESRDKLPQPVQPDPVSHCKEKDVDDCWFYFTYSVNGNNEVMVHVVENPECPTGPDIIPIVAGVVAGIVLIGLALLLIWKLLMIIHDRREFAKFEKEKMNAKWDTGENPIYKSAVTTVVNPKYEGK
UniProt P08648, 42-894 limits assumed: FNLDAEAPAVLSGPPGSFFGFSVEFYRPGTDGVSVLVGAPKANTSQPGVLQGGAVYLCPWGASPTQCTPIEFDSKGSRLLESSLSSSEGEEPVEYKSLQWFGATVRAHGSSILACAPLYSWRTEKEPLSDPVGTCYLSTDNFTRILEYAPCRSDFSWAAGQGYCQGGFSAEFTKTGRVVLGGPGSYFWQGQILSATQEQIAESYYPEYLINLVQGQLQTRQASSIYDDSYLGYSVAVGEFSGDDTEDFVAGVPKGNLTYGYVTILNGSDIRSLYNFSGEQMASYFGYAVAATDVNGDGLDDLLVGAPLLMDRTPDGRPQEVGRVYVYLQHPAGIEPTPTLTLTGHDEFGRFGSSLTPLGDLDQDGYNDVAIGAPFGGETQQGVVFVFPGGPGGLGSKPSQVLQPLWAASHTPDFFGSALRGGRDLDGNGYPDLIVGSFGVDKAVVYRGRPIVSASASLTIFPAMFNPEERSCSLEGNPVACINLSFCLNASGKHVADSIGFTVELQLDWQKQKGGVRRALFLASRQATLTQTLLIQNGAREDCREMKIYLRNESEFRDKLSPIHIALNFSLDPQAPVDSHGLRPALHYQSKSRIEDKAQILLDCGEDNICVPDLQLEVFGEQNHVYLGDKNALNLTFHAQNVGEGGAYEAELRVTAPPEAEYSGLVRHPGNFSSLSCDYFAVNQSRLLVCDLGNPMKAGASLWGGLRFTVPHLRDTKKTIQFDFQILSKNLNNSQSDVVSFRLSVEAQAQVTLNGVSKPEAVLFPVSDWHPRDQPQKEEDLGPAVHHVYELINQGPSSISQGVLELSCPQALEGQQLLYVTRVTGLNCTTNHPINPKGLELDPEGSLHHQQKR
UniProt P08648, 895-1049 limits assumed: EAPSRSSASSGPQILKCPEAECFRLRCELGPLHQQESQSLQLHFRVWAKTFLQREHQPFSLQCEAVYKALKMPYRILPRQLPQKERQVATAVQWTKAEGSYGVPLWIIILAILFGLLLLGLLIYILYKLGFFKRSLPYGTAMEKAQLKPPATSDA

Target: integrin α5β1 (fibronectin receptor purified from the human placenta) (Homo sapiens, UniProt P05556+P08648)
Test: α5β1 binding assay (fibronectin-fibronectin receptor binding assay)
Settings: read-out: α5β1 Binding inhibitory activity; fibronectin binding to human placenta fibronectin receptor
Description: Integrin α5β1 antagonistic activity (lethality) was measured for the compounds according to the present invention in a fibronectin-fibronectin receptor binding assay system in accordance with the method of Kouns et al. (W. C. Kouns, D. Kirchhofer, P. Hadvary, A. Edenhofer, T. Weller, G. Pfenninger, H. R. Baumgartner, L. K. Jennings, and B. Steiner, Blood, 80, 2539-2547 (1992)).
Specifically, a fibronectin receptor (protein content: 52.1 μg/ml) purified from the human placenta by the method of Pytela et al. (R. Pytela, M. D. Pierschbacher, S. Argraves, S. Suzuki, and E. Ruoslahti, Method in Enzymology, 144, 475-489 (1987)) was diluted 25 times with TBS (20 mM Tris-HCl, 150 mM NaCl, 1 mM CaCl2, 1 mM MgCl2, pH 7.4), and distributed and coated on wells (50 μl/well) of a plate (Maxisorp, Nunc, 96 well Immuno Plate). […] A 0.1 M citric acid buffer (pH 4.3) containing 0.05% NaN3 was added in an amount of 50 μl/well to stop the reaction, followed by the measurement of the absorbance at 415 nm with a microplate reader (MTP 32, Corona Electric) (reference: 675 nm). The total binding was defined as the absorbance after a reaction using 50 μl of TBS-Tween instead of the test compound, and the non-specific binding (100% inhibition) was defined as the absorbance after a reaction using 50 μl of TBS-Tween containing 2×10^−3 M RGDS. The inhibition was calculated by the following equation: [formula] […]

IC50: 2500 nM
Compound: N=C(N)NC1CCN(c2ccc(C(=O)NC[C@H](NS(=O)(=O)c3ccccc3)C(=O)O)cc2)CC1
